# Results from patent publication US20080188457A1, “Modulation of Neurogenesis with Biguanides and GSK3-beta Agents” (BrainCells, Inc., priority 2007, published 2008).
# Test system: human neural stem cells (hNSCs)
# Assay: Neuronal differentiation of human neural stem cells (TUJ-1 antibody staining)
# Settings: FIG. 1; metformin CRC 0.01 μM to 31.6 μM, azakenpaullone CRC 0.001 μM to 3.2 μM, alone or in combination; basal media values subtracted
structure (smiles),measurement,value
O=C1Cc2c([nH]c3ccc(Br)cc23)-c2ncccc2N1 [azakenpaullone],maximum neuronal differentiation percent of positive control,120%
"CN(C)C(=N)NC(=N)N [metformin, 1,1-Dimethylbiguanide]",maximum neuronal differentiation percent of positive control,10%
